What is called IC50 is the concentration that inhibits the measured activity by half. As usually defined, the Kd is the constant that tells how readily two partners part at equilibrium.

Amino acid sequences for entries named in this document (tags omitted).
UniProt Q8R4B8, whole entry, looked up: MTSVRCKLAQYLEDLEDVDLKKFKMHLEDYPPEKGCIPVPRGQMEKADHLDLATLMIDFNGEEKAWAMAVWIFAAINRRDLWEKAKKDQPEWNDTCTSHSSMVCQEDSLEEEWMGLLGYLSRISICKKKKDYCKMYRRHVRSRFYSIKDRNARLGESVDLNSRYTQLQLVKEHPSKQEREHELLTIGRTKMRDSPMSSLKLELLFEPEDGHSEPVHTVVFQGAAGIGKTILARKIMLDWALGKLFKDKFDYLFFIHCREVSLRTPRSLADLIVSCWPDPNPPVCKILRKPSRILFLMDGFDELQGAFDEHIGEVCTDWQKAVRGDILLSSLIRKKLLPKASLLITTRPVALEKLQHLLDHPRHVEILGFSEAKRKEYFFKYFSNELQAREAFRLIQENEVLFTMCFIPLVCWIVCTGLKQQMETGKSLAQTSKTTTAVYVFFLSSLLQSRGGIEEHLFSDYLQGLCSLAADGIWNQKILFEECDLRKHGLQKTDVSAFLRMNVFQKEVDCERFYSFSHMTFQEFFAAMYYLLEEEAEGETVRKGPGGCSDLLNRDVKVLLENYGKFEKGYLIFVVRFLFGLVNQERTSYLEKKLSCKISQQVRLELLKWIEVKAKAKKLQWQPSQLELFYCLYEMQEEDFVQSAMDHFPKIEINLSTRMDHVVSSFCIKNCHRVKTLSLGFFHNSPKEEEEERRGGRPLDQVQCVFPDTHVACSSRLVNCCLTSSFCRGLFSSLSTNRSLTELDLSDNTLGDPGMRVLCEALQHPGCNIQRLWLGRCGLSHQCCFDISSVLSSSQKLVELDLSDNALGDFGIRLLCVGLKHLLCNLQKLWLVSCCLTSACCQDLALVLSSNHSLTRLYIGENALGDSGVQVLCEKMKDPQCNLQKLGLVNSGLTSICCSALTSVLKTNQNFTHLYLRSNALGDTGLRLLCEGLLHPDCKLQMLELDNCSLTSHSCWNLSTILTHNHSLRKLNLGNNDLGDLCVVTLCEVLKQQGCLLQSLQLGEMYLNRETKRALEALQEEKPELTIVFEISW
UniProt Q96P20, whole entry, looked up: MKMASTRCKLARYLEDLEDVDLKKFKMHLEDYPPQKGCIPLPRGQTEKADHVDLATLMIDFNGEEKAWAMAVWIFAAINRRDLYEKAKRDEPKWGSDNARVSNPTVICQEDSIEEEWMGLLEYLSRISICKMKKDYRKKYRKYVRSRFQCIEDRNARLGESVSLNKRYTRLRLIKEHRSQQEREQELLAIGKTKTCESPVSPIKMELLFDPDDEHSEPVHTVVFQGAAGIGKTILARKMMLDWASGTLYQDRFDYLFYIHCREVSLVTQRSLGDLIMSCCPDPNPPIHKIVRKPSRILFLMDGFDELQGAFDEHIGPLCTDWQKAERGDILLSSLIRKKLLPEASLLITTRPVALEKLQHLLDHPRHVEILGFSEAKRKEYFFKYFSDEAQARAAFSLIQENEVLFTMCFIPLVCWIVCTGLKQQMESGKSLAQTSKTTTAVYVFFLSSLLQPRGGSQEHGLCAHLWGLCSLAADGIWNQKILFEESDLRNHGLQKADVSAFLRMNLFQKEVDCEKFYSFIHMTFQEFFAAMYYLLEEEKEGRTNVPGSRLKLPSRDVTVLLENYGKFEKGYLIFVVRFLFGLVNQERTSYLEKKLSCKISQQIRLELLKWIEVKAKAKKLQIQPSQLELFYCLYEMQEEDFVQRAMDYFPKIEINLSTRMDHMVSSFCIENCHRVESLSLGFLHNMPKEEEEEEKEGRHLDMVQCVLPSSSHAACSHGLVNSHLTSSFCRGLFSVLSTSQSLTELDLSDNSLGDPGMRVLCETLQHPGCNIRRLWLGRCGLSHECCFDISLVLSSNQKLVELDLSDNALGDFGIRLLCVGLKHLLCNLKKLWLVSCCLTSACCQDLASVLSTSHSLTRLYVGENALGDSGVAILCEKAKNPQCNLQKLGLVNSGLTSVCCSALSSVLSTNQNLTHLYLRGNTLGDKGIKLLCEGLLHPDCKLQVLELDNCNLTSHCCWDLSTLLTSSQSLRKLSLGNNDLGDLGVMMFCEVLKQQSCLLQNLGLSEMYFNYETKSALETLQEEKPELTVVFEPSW

This passage reports IC50 and Kd results from ChEMBL document CHEMBL5390258, “Recent Progress and Prospects of Small Molecules for NLRP3 Inflammasome Inhibition” (J Med Chem, 2023).

The target in assay [1] is NACHT, LRR and PYD domains-containing protein 3 (Mus musculus, UniProt Q8R4B8). Description: Inhibition of NLRP3 in mouse BMDM cells assessed as reduction in IL-1beta production.
Assay [2] concerns the target NACHT, LRR and PYD domains-containing protein 3 (Homo sapiens, UniProt Q96P20). As to the kind of experiment: Binding affinity to GFP-flag-tagged human NLRP3 transfected in HEK293T cells assessed as equilibrium dissociation constant measured after 40 mins by MST assay.

For the compound `O=C(CBr)C1CC([N+](=O)[O-])([N+](=O)[O-])C1`, the half-maximal inhibitory concentration (IC50) in assay [1] came out at 117 nM. In assay [2], the equilibrium dissociation constant (Kd) came to 20.8 nM.
